Test results published in patent US11655207B2, “Pharmaceutically acceptable salt of alkylcarbamoyl naphthalenyloxy octenoylhydroxy amide or of derivative thereof and method for preparing same” (CRYSTALGENOMICS, INC., priority 2017, dated 2023).

Question: For `CN(C)CCCNC(=O)/C(=C/CCCCC(=O)NO)COc1cccc2ccccc12.O=C(O)C(O)C(O)C(=O)O` [Example 1, Alkylcarbamoyl Naphthalenyloxy Octenoyl Hydroxyamide Tartaric Acid Salt], which Content (bottle package, 1 day, Room temperature) is on record?
Answer: Its Content is 99.3.

Question: And the Content (bottle package, 1 day, Severe (60±2° C.))?
Answer: Its Content is 101.2.

Question: And the Content (bottle package, 3 days, Room temperature)?
Answer: The Content was 99.5.

Question: What about the Content (bottle package, 7 days, Room temperature) of the same compound?
Answer: The Content was 99.4.

Question: And the Content (open state, 1 day, Long-term (25±2° C. and 60±5% RH))?
Answer: The Content was 99.9.

Question: And the Content (open state, 1 day, Room temperature)?
Answer: Its Content is 101.0.

Question: And the Content (open state, 1 day, Severe (60±2° C.))?
Answer: The Content was 101.1.

Question: What about the Content (open state, 3 days, Room temperature) of the same compound?
Answer: The Content was 101.9.

Like-named read-outs stand apart in the source and are kept apart here.
